Reference: ChEMBL document CHEMBL6127058, “Overview of the PRMT6 modulators in cancer treatment: Current progress and emerged opportunity” (Eur J Med Chem, 2024)

The chains behind the UniProt entries cited, without tags or fusion partners.
UniProt Q96LA8, whole entry: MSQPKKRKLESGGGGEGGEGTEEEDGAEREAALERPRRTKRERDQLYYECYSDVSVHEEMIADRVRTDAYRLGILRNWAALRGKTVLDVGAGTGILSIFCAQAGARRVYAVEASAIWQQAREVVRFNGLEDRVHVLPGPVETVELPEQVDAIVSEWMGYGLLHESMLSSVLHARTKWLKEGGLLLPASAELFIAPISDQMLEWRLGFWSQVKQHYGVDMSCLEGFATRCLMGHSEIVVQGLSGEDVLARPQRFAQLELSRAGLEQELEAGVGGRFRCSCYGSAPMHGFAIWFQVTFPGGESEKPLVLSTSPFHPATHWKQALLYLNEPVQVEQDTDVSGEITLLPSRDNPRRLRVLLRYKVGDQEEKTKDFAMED

Target: Protein arginine N-methyltransferase 6 (Homo sapiens, UniProt Q96LA8)

IC50: > 50 nM
SMILES: Cc1cc(C)cc([C@H]2c3cc(C)ccc3NC(=O)CN2C(=O)c2ccc(Br)s2)c1
